According to patent US20210252032A1, “DRUGS FOR GRP78 CELL SURFACE TRANSLOCATION AND PAR-4 SECRETION” (University of Kentucky Research Foundation, priority 2020, published 2021):

System: tyrosine-protein kinase SRC
Test: SRC activation (FIG. 3)
Assay type: cell-based
Settings: lung cancer cells
Description: Dephosphorylation of Y530 by phosphatases results in autophosphorylation of SRC at Y419, leading to activation. SRC activation triggers a signaling cascade that prevents retrograde trafficking of proteins from the Golgi to the ER and promotes GRP78 translocation from the Golgi to the cell surface.

activation of SRC: cause the activation of SRC
Compound: C[C@@H](Oc1cc(-c2cnn(C3CCNCC3)c2)cnc1N)c1c(Cl)ccc(F)c1Cl [CZT, Crizotinib]
